Results: US8431529B2, “Bi-dentate compounds as kinase inhibitors” (Sanford-Burnham Medical Research Institute, priority 2007, dated 2013)

Chains of the proteins cited; added tags and fusions are not shown.
UniProt P45983, whole entry: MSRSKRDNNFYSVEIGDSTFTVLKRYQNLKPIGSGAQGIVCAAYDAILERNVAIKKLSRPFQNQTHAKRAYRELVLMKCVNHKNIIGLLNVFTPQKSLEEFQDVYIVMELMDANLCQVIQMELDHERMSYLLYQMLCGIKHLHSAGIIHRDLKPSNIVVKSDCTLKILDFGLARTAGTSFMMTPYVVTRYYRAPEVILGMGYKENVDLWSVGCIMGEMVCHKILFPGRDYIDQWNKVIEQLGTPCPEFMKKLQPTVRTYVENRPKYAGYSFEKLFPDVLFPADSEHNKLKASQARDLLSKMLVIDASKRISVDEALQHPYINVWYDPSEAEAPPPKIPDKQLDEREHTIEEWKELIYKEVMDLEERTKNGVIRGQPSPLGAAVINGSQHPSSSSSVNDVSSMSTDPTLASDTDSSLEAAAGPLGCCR

biological target: JNK1 (Homo sapiens, UniProt P45983); test: LanthaScreen TR-FRET in vitro kinase activity assay, JNK1 phosphorylation of ATF2; type: biochemical; conditions: read-out: IC50 (μM), Kinase Assay; Table 2

Structure (SMILES) | IC50
NCCCCCNC(=O)c1ccc(-c2n[nH]c3ccccc23)cc1 | 6.3 µM
CC(C)(C)c1cc(C(C)(C)C)c2oc(C(=O)NCCCCCNC(=O)c3ccc(-c4n[nH]c5ccccc45)cc3)cc(=O)c2c1 | 1 µM
O=C(CCC12CC3CC(CC(C3)C1)C2)NCCCCCNC(=O)c1ccc(-c2n[nH]c3ccccc23)cc1 | 2.2 µM
O=C(NCCCNC(=O)c1ccc2ncccc2c1)c1ccc(-c2n[nH]c3ccccc23)cc1 | 5.7 µM
O=C(NCCCCCNC(=O)c1ccc2ccccc2c1)c1ccc(-c2n[nH]c3ccccc23)cc1 | 4.8 µM
CC1=C(/C=C/C(C)=C/C=C/C(C)=C/C(=O)NCCCCCNC(=O)c2ccc(-c3n[nH]c4ccccc34)cc2)C(C)(C)CCC1 | 0.75 µM

Continued, values first:

IC50 | Structure (SMILES)
4.7 µM | CC12CC3(C)CC(C)(C1)CC(C(=O)NCCCCCNC(=O)c1ccc(-c4n[nH]c5ccccc45)cc1)(C2)C3
5 µM | O=C(NCCCCCNC(=O)C12CC3CC(CC(C3)C1)C2)c1ccc(-c2n[nH]c3ccccc23)cc1
